For 2 molecules, IC50 results are on record in patent US10517878B2, “Serine/threonine kinase inhibitors” (GENENTECH, INC., priority 2013, dated 2019).

Amino acid sequences for entries named in this document (tags omitted). Residues count along the entry.
UniProt P28482, 8-360: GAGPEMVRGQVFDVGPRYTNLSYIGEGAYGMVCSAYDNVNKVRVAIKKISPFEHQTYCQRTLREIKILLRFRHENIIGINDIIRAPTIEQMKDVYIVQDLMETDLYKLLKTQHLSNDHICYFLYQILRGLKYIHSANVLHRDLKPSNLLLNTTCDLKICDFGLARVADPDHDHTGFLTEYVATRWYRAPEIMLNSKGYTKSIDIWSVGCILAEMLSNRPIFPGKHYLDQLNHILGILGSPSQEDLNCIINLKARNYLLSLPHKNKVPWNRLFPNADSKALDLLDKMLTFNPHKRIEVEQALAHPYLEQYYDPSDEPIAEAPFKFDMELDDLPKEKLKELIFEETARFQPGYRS

This assay addresses human ERK-2 (Mitogen Activated Kinase 1) (Homo sapiens (Human), UniProt P28482). The assay can be described thus: ERK-2 Enzymatic Assay. Conditions: human ERK-2 enzyme, S/T17 peptide substrate, 25 μM ATP; R/S = configuration of CR2R3. It is filed as biochemical. How it is done: Test compounds were diluted in DMSO in 3-fold serial dilutions at 100× final concentrations. […] The data collected from each well was fit to a straight line, and the resulting rates were used to calculate percent of control. Percent of control was plotted against compound concentration, and IC50 values were determined using a four-parameter fit.

`CN1C(=O)C[C@H](Cc2ccccc2)c2nnc3cc(-c4ccnc(Nc5ccnn5C)n4)cc1n23` [(S) I-61] showed an IC50 of 5.83 nM.
`CN1C(=O)C[C@@H](Cc2ccccc2)c2nnc3cc(-c4ccnc(Nc5ccnn5C)n4)cc1n23` [(R) I-61] showed an IC50 of 0.073 nM.
